According to patent US20180009871A1 (INTARCIA THERAPEUTICS, published 2018):

Experiments:
Assay in all cases: cell-based or functional assay
[1] = target: human glucagon receptor (GCGR) (human) (UniProt P47871)
[2] = target: human GLP-1 receptor (GLP-1R) (human) (UniProt P43220)
hGIPR (human) = hGIPR (human) (UniProt P48546)

Substance: Exenatide (peptide)
- Human in vitro Potency (pEC50), hGCGR [1]: 9.2 pEC50
- Human in vitro Potency (pEC50), hGLP-1R [2]: 11.7 pEC50
- Human in vitro Potency (pEC50), hGIPR (hGIPR (human)): < 5 pEC50
